The values that follow come from PMC3692431, “Anticonvulsant Activity of B2, an Adenosine Analog, on Chemical Convulsant-Induced Seizures” (PLoS ONE, 2013).

Protein sequences, listed by entry. Tags and fused reporters are not part of them. Lines headed by an entry give the natural chain unless they say otherwise; changes in a name come on top.
UniProt P30543, whole entry: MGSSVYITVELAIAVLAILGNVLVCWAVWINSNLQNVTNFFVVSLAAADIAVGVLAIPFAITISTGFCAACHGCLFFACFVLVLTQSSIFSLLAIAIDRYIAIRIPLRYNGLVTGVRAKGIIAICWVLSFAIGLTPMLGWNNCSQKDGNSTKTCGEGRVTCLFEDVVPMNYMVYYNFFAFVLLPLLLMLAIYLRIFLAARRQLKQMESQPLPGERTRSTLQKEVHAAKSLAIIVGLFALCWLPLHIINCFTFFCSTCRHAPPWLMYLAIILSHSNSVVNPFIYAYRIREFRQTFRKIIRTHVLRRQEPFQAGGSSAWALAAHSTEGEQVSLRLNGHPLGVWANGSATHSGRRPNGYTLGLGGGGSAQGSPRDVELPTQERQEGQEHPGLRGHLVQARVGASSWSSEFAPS

pKi: −log10 of the molar value.

The assay addresses T1, A2A adenosine receptor (Rattus norvegicus, UniProt P30543).
T1 construct: from tissue; host or cells: striatum of male Wistar rats
Kind of assay: Radioligand binding, [3H]MSX-2 displacement in rat striatal membranes. As to conditions: 0.75 nM [3H]MSX-2. The procedure: Male Wistar rats were sacrificed. The cerebral cortex and striatum were then removed and homogenized in 10 volumes of ice-cold 50 mM Tris–HCl buffer (pH 7.4). The homogenates were centrifuged (48,000 ×g) at 4°C for 10 min, the supernatant decanted, and the pellet resuspended in the same volume of buffer before being centrifuged again. The final pellets were resuspended in 50 mM Tris–HCl buffer containing adenosine deaminase (1.2 U per mg of protein) to remove endogenous adenosine.
Binding affinity at adenosine A2A receptors was tested in rat striatal membranes using 0.75 nM [^3H]MSX-2 (104.8 Ci/mmol). The binding assay was carried out in Tris–HCl buffer (50 mM, pH 7.4) as previously described, [12]. Briefly, assays were performed by first incubating the mixtures on a shaking water-bath at 25°C for 30 min. Termination of the incubation was performed by rapid filtration through GF/B glass fiber filters. The radioactivity on the filter was measured using a scintillation counter. […] For saturation analysis, the KD value was set at 0.14 nM and the Bmax value was 2290 fmol/mg protein for binding of [^3H]DPCPX to the A1 adenosine receptor. Meanwhile, the KD value was set at 11.48 nM and the Bmax value was 5651 fmol/mg protein for binding of [^3H]MSX-2 to the A2A adenosine receptor. […]

Compound `Nc1nc(Cl)nc2c1ncn2[C@@H]1O[C@H](CO)[C@@H](O)[C@H]1O` [2-CADO, 2-chloroadenosine, reference compound] showed a negative logarithm of the Ki (pKi) of 6.80.
